# Source: US8093275B2, “Oxazolone and pyrrolidinone-substituted pryidine amides as P2X3 and P2X2/3 antagonists” (Roche Palo Alto LLC, priority 2009, dated 2012)
# Sequences of proteins named here, by UniProt entry; tags and fusion partners are left off.
# UniProt P49654, whole entry: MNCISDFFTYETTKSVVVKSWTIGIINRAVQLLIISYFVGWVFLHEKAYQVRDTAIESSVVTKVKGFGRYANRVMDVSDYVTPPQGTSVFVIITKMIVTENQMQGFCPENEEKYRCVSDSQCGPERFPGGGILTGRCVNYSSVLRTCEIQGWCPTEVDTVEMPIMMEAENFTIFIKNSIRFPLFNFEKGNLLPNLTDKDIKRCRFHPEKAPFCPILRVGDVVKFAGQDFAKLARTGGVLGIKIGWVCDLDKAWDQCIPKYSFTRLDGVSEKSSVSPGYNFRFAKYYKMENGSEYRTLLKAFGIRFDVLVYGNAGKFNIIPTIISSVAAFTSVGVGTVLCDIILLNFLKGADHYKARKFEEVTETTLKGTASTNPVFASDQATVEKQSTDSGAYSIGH
# Target: rat P2X3 receptor (Rattus norvegicus, UniProt P49654)
# Assay: P2X3 FLIPR (Fluorometric Imaging Plate Reader) assay
# Conditions: CHO-K1 cells transfected with rat P2X3; agonist α,β-meATP 1 μM; FLIPR calcium fluorescence
# Description: CHO-K1 cells were transfected with cloned rat P2X3 or human P2X2/3 receptor subunits and passaged in flasks. 18-24 hours before the FLIPR experiment, cells were released from their flasks, centrifuged, and resuspended in nutrient medium at 2.5×10^5 cells/ml. The cells were aliquoted into black-walled 96-well plates at a density of 50,000 cells/well and incubated overnight in 5% CO2 at 37° C. On the day of the experiment, cells were washed in FLIPR buffer (calcium- and magnesium-free Hank's balanced salt solution, 10 mM HEPES, 2 mM CaCl2, 2.5 mM probenecid; FB). Each well received 100 μl FB and 100 μl of the fluorescent dye Fluo-3 AM [2 μM final conc.]. […]
# Test compounds (dissolved in DMSO at 10 mM and serially diluted with FB) or vehicle were added to each well (25 μl of a 4× solution) and allowed to equilibrate for 20 minutes at room temperature. The plates were then placed in the FLIPR and a baseline fluorescence measurement (excitation at 488 nm and emission at 510-570 nm) was obtained for 10 seconds before a 100 μl/well agonist or vehicle addition. […] Fluorescence was measured for an additional 2 minutes at 1 second intervals after agonist addition. A final addition of ionomycin (5 μM, final concentration) was made to each well of the FLIPR test plate to establish cell viability and maximum fluorescence of dye-bound cytosolic calcium. […]
smiles,measurement,value
Cc1ccc(-c2cc(C(=O)NCc3cnc(C)cn3)cc(N3C(=O)OC[C@H]3C)c2)nc1,pKi P2X3,5.82
